From US20200339509A1, “Non-Coordinating Anion Type Indolinium Activators in Aliphatic and Alicyclic Hydrocarbon Solvents” (ExxonMobil Chemical Patents Inc., priority 2019, published 2020)

Test: Solubility study of the activators (saturated solution in aliphatic/alicyclic solvent)
Assay type: physicochemical
Conditions: 25° C., concentration of saturated solution; for Solubility limit in MeCy: MeCy (methylcyclohexane)
Experimental: The solubility was determined using a saturated solution of the activator prepared by slowly adding the solvent to a pre-weighed amount of the activator. The final volume was determined as the minimum amount of solvent required to convert the heterogenous mixture into a homogeneous solution. The concentration of the saturated solution is presented in millimoles of activator per liter of solution (mM). Alternatively, a mixture of the activator was prepared by adding the solvent to an excess amount of activator. The resulting slurry was separated from the undissolved solids by decanting the mixture into a tared vial. Solvent was then added dropwise until the mixture became a homogeneous solution. The mass of the final solution was measured and then the solvent was evaporated to dryness to obtain the mass of the activator. The concentration of the saturated solution is presented in millimoles of activator per liter of solution (mM).
It was further discovered that adding or increasing the length of aliphatic branches to the indoline ring further increases the solubility of the activator.

| Substance | Solubility limit in MeCy | Solubility limit in i-hexane |
| --- | --- | --- |
| N,N-dimethyl anilinium tetrakis(heptafluoronaphthalen-2-yl)borate [DMAH-BF28, reference compound] | <100 µM | <100 µM |
| 1-methylindolinium tetrakis(heptafluoronaphthalen-2-yl)borate [MIH-BF28] | <100 µM | <100 µM |
